Test results reported in publication PMC3246389 (2011).

By UniProt entry, the sequences of proteins in these tests, tags left out. Residues count along the entry.
UniProt P48061, 22-89: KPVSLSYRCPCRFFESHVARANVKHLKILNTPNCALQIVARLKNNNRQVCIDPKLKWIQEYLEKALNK

Biological target: CXCL12 (SDF-1alpha) (Homo sapiens, UniProt P48061)
Experiment: backscattering interferometry

- Kd: 0.69 nM
B1: CXCR4 (protein)
chain: MEGISIYTSDNYTEEMGSGDYDSMKEPCFREENANFNKIFLPTIYSIIFLTGIVGNGLVILVMGYQKKLRSMTDKYRLHLSVADLLFVITLPFWAVDAVANWYFGNFLCKAVHVIYTVNLYSSVLILAFISLDRYLAIVHATNSQRPRKLLAEKVVYVGVWIPALLLTIPDFIFANVSEADDRYICDRFYPNDLWVVVFQFQHIMVGLILPGIVILSCYCIIISKLSHSKGHQKRKALKTTVILILAFFACWLPYYIGISIDSFILLEIIKQGCEFENTVHKWISITEALAFFHCCLNPILYAFLGAKFKTSAQHALTSVSRGSSLKILSKGKRGGHSSVSTESESSSFHSS
